# AlphaSeq binding of Ab-14 light chain variants to a spike HR2 peptide

Binding partner: SARS-CoV-2 spike HR2 peptide, sequence PDVDLGDISGINAS.

Each scFv is VH, a (GGGGS)3 linker, VL, as in the parent Ab-14, and differs from it in the CDRs of the light chain only.
VH: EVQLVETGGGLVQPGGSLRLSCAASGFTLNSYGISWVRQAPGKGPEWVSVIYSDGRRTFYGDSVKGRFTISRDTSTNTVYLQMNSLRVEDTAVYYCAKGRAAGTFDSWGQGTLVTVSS
VL: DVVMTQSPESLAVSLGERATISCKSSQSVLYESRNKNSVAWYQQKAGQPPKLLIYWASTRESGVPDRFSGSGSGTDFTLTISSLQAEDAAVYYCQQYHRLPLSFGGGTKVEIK

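The starting antibody came from a phage panning campaign against this peptide. In library AAYL50, one, two or three CDR residues were substituted; doubles and triples were drawn at random. The scFvs were displayed on barcoded MATa yeast, the peptide on MATalpha yeast. Mating (16 h, 30 °C) was followed by selection of diploids and sequencing of their barcodes. Scores were corrected for input abundance and mapped to Kd with protein pairs of known affinity run in the same pool. The assay was run in three technical replicates.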

Positions count from residue 1 of the parent VL; Y31M puts M in place of Y. Each Kd is an estimate from the mating assay, the geometric mean of the replicates in which the pair was seen; lower is stronger. An entry "nd" has no value in the source: the pair was not observed among the diploids in any replicate. This suggests poor binding but is not conclusive.

The variant Y31M A40Q L102C showed nd (0 of 3 replicates; controls 1 of 9).
The variant E32K A57D L100C showed 14 nM (3 of 3 replicates; controls 0 of 9).
The variant Q27F R34S A40P showed 2.5 µM (1 of 3 replicates; controls 2 of 9).
The variant S33C S38E W56S showed nd (0 of 3 replicates; controls 2 of 9).
The variant S28N V39H Q96V showed nd (0 of 3 replicates; controls 3 of 9).
The variant A40M T59N Y97S showed 53 µM (2 of 3 replicates; controls 2 of 9).
The variant R34P S62I L102I showed 5.1 nM (3 of 3 replicates; controls 2 of 9).
The variant N37G A57E S103E showed nd (0 of 3 replicates; controls 2 of 9).
The variant Y31Q S38D P101R showed nd (0 of 3 replicates; controls 0 of 9).
The variant S33M V39D P101E showed 28 µM (2 of 3 replicates; controls 2 of 9).
The variant A57V R60N showed nd (0 of 3 replicates; controls 1 of 9).
The variant S25W H98C L100S showed 6.3 µM (1 of 3 replicates; controls 1 of 9).
The variant T59H R60F Q95S showed nd (0 of 3 replicates; controls 1 of 9).
The variant N35C L102K S103Q showed 270 nM (3 of 3 replicates; controls 1 of 9).
The variant E32H A40K L100F showed 6.3 µM (1 of 3 replicates; controls 1 of 9).
The variant K24R L30D L102E showed 240 nM (1 of 3 replicates; controls 0 of 9).
The variant Q27R K36N S38T showed 19 µM (2 of 3 replicates; controls 3 of 9).
The variant R34A E61W L100N showed 42 nM (3 of 3 replicates; controls 4 of 9).
The variant E32A W56Y S58E showed 8.5 nM (3 of 3 replicates; controls 0 of 9).
The variant Y97G R99F P101L showed nd (0 of 3 replicates; controls 0 of 9).
The variant K36I S38N Y97R showed 68 nM (3 of 3 replicates; controls 2 of 9).
The variant V29T L30G S33T showed 6.2 nM (3 of 3 replicates; controls 0 of 9).
The variant L30A N37L T59A showed 8.5 µM (2 of 3 replicates; controls 2 of 9).
The variant R60D H98T L100I showed 25 µM (1 of 3 replicates; controls 0 of 9).
The variant Q27D A57K H98T showed 27 nM (3 of 3 replicates; controls 0 of 9).
The variant K24F Q27E A57T showed 28 nM (3 of 3 replicates; controls 3 of 9).
The variant A40L S58C T59K showed nd (0 of 3 replicates; controls 0 of 9).
The variant S26P Q27S S38N showed 24 µM (3 of 3 replicates; controls 7 of 9).
The variant E32S S58H S62R showed 67 nM (3 of 3 replicates; controls 0 of 9).
The variant W56V L102A S103M showed 2.9 µM (2 of 3 replicates; controls 1 of 9).
The variant T59D Y97N S103R showed 110 nM (3 of 3 replicates; controls 2 of 9).
The variant S26N V29E S33Q showed 200 nM (3 of 3 replicates; controls 3 of 9).
The variant S38L S62T P101C showed 8.6 µM (1 of 3 replicates; controls 3 of 9).

Excerpt, the final 4 entries:

changes	Kd	replicates with signal	empty controls
W56V L102A S103M	2.9 µM	2/3	1/9
T59D Y97N S103R	110 nM	3/3	2/9
S26N V29E S33Q	200 nM	3/3	3/9
S38L S62T P101C	8.6 µM	1/3	3/9

Parent in this assay: reference entry 4.4 nM, copy in this library 48 nM. Background: pairings of library AAYL50 with three empty control strains gave a value in 18% of cases (median 15 µM, 5th percentile 970 nM). Values in that range, when seen in few replicates, are hard to tell from nonspecific mating. For each scFv, signals with the empty controls are counted beside the result.

Data: MIT Lincoln Laboratory AlphaSeq set, Engelhart et al. 2022, doi:10.1038/s41597-022-01779-4, as distributed in FLAb.